In PubChem BioAssay AID485344 (National Center for Advancing Translational Sciences (NCATS), 2010):
The list shows a part of the results, in another mix than the full data. Some salts and complexes are drawn in separate pieces, as the source files them; their charges need not balance. Active and inactive are the calls of the source. Rule as the data show it: active = inhibition above about 30%; inactive = below that, where a call was filed.

By UniProt entry, the sequences of proteins in these tests, tags left out.
UniProt P14416, whole entry: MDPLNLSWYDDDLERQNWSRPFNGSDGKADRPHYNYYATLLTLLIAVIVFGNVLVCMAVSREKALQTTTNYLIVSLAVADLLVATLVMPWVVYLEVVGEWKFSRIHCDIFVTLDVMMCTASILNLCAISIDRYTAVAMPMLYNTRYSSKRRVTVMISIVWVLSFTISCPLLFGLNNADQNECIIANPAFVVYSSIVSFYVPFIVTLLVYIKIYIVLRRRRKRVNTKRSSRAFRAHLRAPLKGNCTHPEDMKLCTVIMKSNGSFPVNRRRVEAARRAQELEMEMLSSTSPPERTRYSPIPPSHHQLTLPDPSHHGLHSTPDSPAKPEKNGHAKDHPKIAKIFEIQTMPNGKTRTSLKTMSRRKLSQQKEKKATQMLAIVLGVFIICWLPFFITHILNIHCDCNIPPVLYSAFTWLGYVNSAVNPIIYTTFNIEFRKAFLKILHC

target: D(2) dopamine receptor (Homo sapiens) (UniProt P14416); experiment: HTS Assay for Allosteric Antagonists of the Human D2 Dopamine Receptor: Primary Screen for Antagonists; conditions: HEK293 TREx D2 cells, calcium flux, dopamine EC80; at 10 µM; hits give high values; also: 0% is about no effect
Excerpt: NIH Chemical Genomics Center [NCGC] NIH Molecular Libraries Probe Centers Network [MLPCN] MLPCN Grant: NS064831-01 Assay Submitter (PI): David Sibley Dopamine receptors (DARs) are involved in the etiology and/or therapy of a number of neuropsychiatric and endocrine disorders. For instance, all receptor-based antiparkinsonian drugs work via stimulating the D2 DAR subtype whereas all FDA-approved antipsychotic agents are antagonists of this receptor. […] There are three different types of allosteric modulators that we are seeking, two of which will stimulate or augment receptor signaling, allosteric agonists and potentiators, while the third, allosteric antagonists, will attenuate receptor signaling. The present primary screening assay measures compound antagonism after an EC80 addition of dopamine by tracking calcium flux in a […], inducible Hek293 Trex D2 cell line.
Freshly passaged cells are plated in 1536 well black, clear bottom plates at a density of 4000 cells/well in 3 ul of complete media containing 1x tetracycline inducer. After an overnight incubation at 30 C in 5% CO2, cells are loaded with 2 ul of the no wash Calcium Assay Kit (ABD Bioquest) and incubated at room temperature for 30 to 90 minutes. Agonist read: A 10 cycle (1 second/cycle) baseline measurement is taken and then the FDSS online 1536 pintool delivers 23 nl of compound library (as well as dopamine controls) to the plate. The plate is measured for kinetically at 1 cycle/sec for 180 seconds. Following the 180 second read, 1 ul of an EC80 (negative modulation assay) is delivered by an onboard pipette head. Measurements are taken kinetically for an additional 180 seconds.

| Compound | inhibition |
| --- | --- |
| CCOc1ncccc1C(=O)NCC1(N2CCOCC2)CCCCC1 | inactive: 5.54% |
| CN1CCC(Nc2ccc(F)c(Cl)c2)CC1 | inactive: -2.54% |
| CCCOc1ccc(C(=O)NCC2(N(C)C)CCCCC2)cc1 | inactive: 1.57% |
| CC(C)(C)OC(=O)N1CCC(Nc2ccccc2)CC1 | inactive: 3.7% |
| O=C(O)C1(Nc2ccccc2)CCN(Cc2ccccc2)CC1 | inactive: 7.76% |
| CCC(CO)(C(=O)OC1CN2CCC1CC2)c1ccccc1 (stereo not drawn) | inactive: -4.21% |
| COc1cccc(C(=O)N(c2cc(C)cc(C)c2)C2CCN(C(=O)OC(C)(C)C)CC2)c1 | inactive: 5.08% |
| COc1cc(OC)cc(C(=O)NCC2(N3CCOCC3)CCCCC2)c1 | inactive: -1.5% |
| CCCOc1ccc(C)cc1CN(CCCl)CCCl | inactive: -8.67% |
| CN1CCC(Nc2ccc(Cl)cc2)CC1 | inactive: -5.75% |
| COc1cc(OC)cc(C(=O)NCC2(N3CCCCC3)CCCCC2)c1 | inactive: -0.0257% |
| Cc1ccc(C(=O)NCC2(N3CCCCC3)CCCCC2)o1 | inactive: 3.18% |
| Fc1ccccc1NC1CCN(Cc2ccccc2)CC1 | inactive: -34.3% |
| CCN1CCC(Nc2cccc(F)c2)CC1 | inactive: -2.76% |
| O=C(NCC1(N2CCCCC2)CCCCC1)c1ccco1 | inactive: -5.34% |
| N#Cc1ccc(C(=O)NCC2(N3CCCCC3)CCCCC2)cc1 | inactive: -6.74% |
| CCOC(=O)C(CC)C1=NC(C)(C)Cc2ccccc21.O=[N+]([O-])c1cc([N+](=O)[O-])c(O)c([N+](=O)[O-])c1 (stereo not drawn) | inactive: 2.19% |
| c1ccc(CN2CCC(Nc3ccccc3)CC2)cc1 | inactive: -18% |
| CN(C)C1(CNC(=O)c2cccc(C#N)c2)CCCCC1 | inactive: 8.36% |
| O=C(NCC1(N2CCOCC2)CCCCC1)c1cc(Br)ccc1Cl | inactive: -1.63% |
| N/C(=N\O)c1c(N)no[n+]1[O-] | inactive: 18.7% |

| Compound | inhibition |
| --- | --- |
| CCOC(=O)N1CCC(Nc2ccc(C)cc2)CC1 | inactive: 1.27% |
| O=C(OC1CN2CCC1CC2)C1c2ccccc2C=Cc2ccccc21 (stereo not drawn) | inactive: 6.8% |
| O=C(O)c1cccc(Nc2c([N+](=O)[O-])cc([N+](=O)[O-])cc2[N+](=O)[O-])c1 | inactive: 7.66% |
| COc1ccc(CN(CCCl)CCCl)cc1Cl | inactive: 5.67% |
| CN(C)c1cccc(C(=O)NCC2(N3CCCCC3)CCCCC2)c1 | inactive: 1.87% |
| O=[N+]([O-])c1cc([N+](=O)[O-])c(OC2CCCCC2O)c([N+](=O)[O-])c1 (stereo not drawn) | inactive: -2.59% |
| CC(C)c1ccc(NC2CCN(C(=O)OC(C)(C)C)CC2)cc1 | inactive: -3.49% |
| COc1cc(OC)c(C(=O)NCC2(N(C)C)CCCCC2)cc1OC | inactive: -20.3% |
| COc1ccc2c(c1O)-c1c(O)c(OC)cc3c1[C@H](C2)[N+](C)(C)CC3.O=[N+]([O-])c1cc([N+](=O)[O-])c([O-])c([N+](=O)[O-])c1[O-] | inactive: 21% |
| O=C(OC1CN2CCC1CC2)c1ccc([N+](=O)[O-])cc1 (stereo not drawn) | inactive: 9.35% |
| CCCOc1ccc(C(=O)NCC2(N(C)C)CCCCC2)cc1OC | inactive: 15.9% |
| O=C(NCC1(N2CCCCC2)CCCCC1)c1ccc(OC(F)F)cc1 | inactive: 20.9% |
| CSc1ccc(C(=O)NCC2(N3CCOCC3)CCCCC2)cc1 | inactive: -12.4% |
| O=C(NCC1(N2CCCCC2)CCCCC1)c1cccc([N+](=O)[O-])c1 | inactive: -15.3% |
| CCN1CCC(Nc2ccc(Cl)cc2)CC1 | inactive: -6.55% |
| N#CC1(Nc2ccccc2)CCN(CCc2ccccc2)CC1 | inactive: 24.6% |
| O=C(NCC1(N2CCCCC2)CCCCC1)c1cccc(C(F)(F)F)c1 | inactive: -7.37% |
| O=[N+]([O-])c1cc([N+](=O)[O-])c(NCC2CCS(=O)(=O)C2)c([N+](=O)[O-])c1 (stereo not drawn) | inactive: -1.13% |
| COc1ccc(NC2CCN(C(=O)OC(C)(C)C)CC2)cc1 | inactive: 10.3% |
| CC(C)c1ccc(C(=O)NCC2(N3CCOCC3)CCCCC2)cc1 | inactive: 3.29% |
| CN1CCN(CCOC(=O)C(O)(c2ccccc2)c2ccccc2)CC1 | inactive: 1.68% |

| Compound | inhibition |
| --- | --- |
| O=C(NCC1(N2CCOCC2)CCCCC1)c1cc(=O)[nH]c2ccccc12 | inactive: -0.267% |
| COc1cc(C(=O)NCC2(N3CCCCC3)CCCCC2)ccc1OC(F)F | inactive: 28.7% |
| CCOc1ccc(C)cc1CN(CCCl)CCCl | inactive: -0.585% |
| O=C(NCC1(N2CCCCC2)CCCCC1)c1ccc(F)cc1 | inactive: 0.161% |
| CCOC(=O)N1CCC(Nc2ccc(F)cc2)CC1 | inactive: 5.44% |
| COc1ccc(NC2CCN(CCc3ccccc3)CC2)c(OC)c1 | inactive: 6.81% |
| CCOC(=O)N1CCC(Nc2cccc(C)c2)CC1 | inactive: 4.22% |
| Cc1ccc(OCC(C)C)c(CN(CCCl)CCCl)c1 | inactive: 17.8% |
| O=C(NCC1(N2CCCCC2)CCCCC1)c1ccc(=O)[nH]c1 | inactive: -0.0163% |
| O=C(NCC1(N2CCCCC2)CCCCC1)c1cccs1 | inactive: 22.1% |
| COc1ccc(C(=O)NCC2(N3CCCCC3)CCCCC2)cc1 | inactive: -11.6% |
| COc1ccc(C(=O)NCC2(N3CCCCC3)CCCCC2)c(OC)c1OC | inactive: 1.39% |
| CC(C)(C)OC(=O)N1CCC(N(C(=O)c2ccccc2)c2ccc(F)cc2)CC1 | inactive: 22.2% |
| CSc1ccccc1C(=O)NCC1(N2CCCCC2)CCCCC1 | inactive: 12.2% |
| O=C(NCC1(N2CCOCC2)CCCCC1)c1cc2ccccc2o1 | inactive: 7.52% |
| O=C(NCC1(N2CCCCC2)CCCCC1)c1ccc(Cl)nc1 | inactive: -2.06% |
| Cc1cc(C)cc(N(C(=O)c2ccccc2)C2CCN(C(=O)OC(C)(C)C)CC2)c1 | inactive: -3.99% |
| CCOC(=O)N1CCC(Nc2ccc(OC)cc2)CC1 | inactive: -5.52% |
| N#CC1(Nc2ccccc2)CCN(Cc2ccccc2)CC1 | inactive: -6.14% |
| O=C(OC1CN2CCC1CC2)C1c2ccccc2Oc2ccccc21 (stereo not drawn) | inactive: -6.9% |
| COc1ccc(Cl)cc1C(=O)NCC1(N2CCOCC2)CCCCC1 | inactive: 0.325% |
